Data: PubChem BioAssay AID488847 (NMMLSC, 2010)
This is a selection; strong and weak results do not stand in their true shares. Activity calls are given as the source filed them.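 The calls were made as follows: active = inhibition of aptamer binding above 40%, roughly 3 SD of noise, on plates passing a quality check; inactive = the rest.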

Sequences of proteins named here, by UniProt entry; tags and fusion partners are left off. A change or cut given only in a name is not applied to a line headed by its entry.
UniProt P25098: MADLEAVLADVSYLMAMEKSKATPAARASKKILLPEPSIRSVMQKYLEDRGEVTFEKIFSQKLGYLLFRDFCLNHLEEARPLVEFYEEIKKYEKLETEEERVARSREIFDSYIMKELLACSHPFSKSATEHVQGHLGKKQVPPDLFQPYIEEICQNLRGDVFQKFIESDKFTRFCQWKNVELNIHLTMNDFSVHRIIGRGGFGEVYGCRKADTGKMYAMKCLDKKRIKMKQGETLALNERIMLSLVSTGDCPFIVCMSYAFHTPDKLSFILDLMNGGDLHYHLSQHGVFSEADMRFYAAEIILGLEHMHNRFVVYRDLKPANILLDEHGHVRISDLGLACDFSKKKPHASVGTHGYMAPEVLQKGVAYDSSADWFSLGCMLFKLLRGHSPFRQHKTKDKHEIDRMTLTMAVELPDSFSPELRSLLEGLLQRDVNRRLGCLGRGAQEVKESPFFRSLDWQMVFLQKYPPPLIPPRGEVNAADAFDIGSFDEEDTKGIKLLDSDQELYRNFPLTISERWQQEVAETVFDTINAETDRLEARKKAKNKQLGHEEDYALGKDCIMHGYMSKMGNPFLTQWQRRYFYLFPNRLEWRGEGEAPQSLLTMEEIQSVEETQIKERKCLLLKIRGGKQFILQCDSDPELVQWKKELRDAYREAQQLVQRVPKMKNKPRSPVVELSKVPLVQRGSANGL

What follows are compounds tested against Beta-adrenergic receptor kinase 1 (Homo sapiens) (UniProt P25098) (assay: compounds blocking aptamer binding on GRK2 – biochemical, human GRK2, bead flow cytometry, HTS, primary screen (AID 488847;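 also: median bead fluorescence of bound FAM aptamer so fluorescent compounds give negative values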)). Conditions: FAM-aptamer displacement from GRK2, at 10 µM, stronger effect = higher value.

SMILES	inhibition of aptamer binding
Cc1ccc(OP(=O)(Nc2ccc([N+](=O)[O-])cn2)Oc2ccc(C)cc2)cc1	inactive: 2%
C[As](=O)(O)c1cccc(C(=O)O)c1	inactive: 1%
O=[As](O)(c1ccc(O)cc1)c1ccccc1O	inactive: 1%
CC(C)NC(=O)NP(=O)(Oc1ccccc1)Oc1ccccc1	inactive: 2%
O=[N+]([O-])c1cc([N+](=O)[O-])c(-c2ccn[nH]2)s1	inactive: 4%
COc1ccc2nc(NP(=O)(c3ccccc3)c3ccccc3)sc2c1	inactive: 1%
O=C(OC1CN2CCC1CC2)C12CC3CC(CC(C3)C1)C2 (stereo not drawn)	inactive: 1%
Cc1c2c(nc3ccccc13)SC(C(Cl)Cl)C2 (stereo not drawn)	inactive: 1%
COP1(=S)c2c(C)nn(CCC#N)c2N=C(c2ccc(F)cc2)N1C (stereo not drawn)	inactive: 1%
CCC(C)N(CC(C)C)C(=S)SC(NC(C)=O)C(Cl)(Cl)Cl (stereo not drawn)	inactive: 2%
CCOC(=O)c1ccc(NC(=O)C(C)(CCl)SC)cc1 (stereo not drawn)	inactive: 5%
Cc1cc(SC(NC(=O)c2ccccc2)C(Cl)(Cl)Cl)nc(C(C)C)n1 (stereo not drawn)	inactive: 4%
CCOC(=O)Nc1ccc([As](=O)(O)O)c(O)c1	inactive: 1%
O=[N+]([O-])c1ccc(Nc2ccc(Oc3ccc([N+](=O)[O-])cc3[N+](=O)[O-])cc2)c([N+](=O)[O-])c1	inactive: 1%
O=P(Nc1ccccn1)(c1cccc2ccccc12)c1cccc2ccccc12	inactive: 3%
Cc1cc(SC(NC=O)C(Cl)(Cl)Cl)ncn1 (stereo not drawn)	inactive: 1%
O=C(/C=C/c1ccccc1)OC1CN2CCC1CC2 (stereo not drawn)	inactive: 2%
Cc1nn(-c2ccccc2)c2c1P(=O)(N1CCOCC1)N(C)C(c1ccccc1)=N2 (stereo not drawn)	inactive: 2%
CC1CCC(C(C)C)C(OP(=O)(Nc2ccccn2)c2ccccc2)C1 (stereo not drawn)	inactive: 3%
Cc1ccc(OCC(=O)OC2CN3CCC2CC3)cc1 (stereo not drawn)	inactive: 3%
O=[As](O)(c1cccs1)c1cccs1	inactive: 3%
O=P1(Nc2ccc(Br)cn2)COc2ccccc2OC1	inactive: 3%
NS(=O)(=O)c1cccc(NC(=O)COC(=O)C(O)(c2ccccc2)c2ccccc2)c1	inactive: 2%
Clc1n[nH]nc1-c1nn[nH][15n]1	inactive: 6%
CC(C)(C)C(=O)NC(Sc1ncccn1)C(Cl)(Cl)Cl (stereo not drawn)	inactive: 10%
O=[As](O)(c1ccccc1Br)c1ccccc1Br	inactive: 1%

SMILES	inhibition of aptamer binding
CC1(CBr)Cn2c(nc3ccccc3c2=O)S1 (stereo not drawn)	inactive: 6%
COc1cc(C(=O)NCC2(N3CCOCC3)CCCCC2)cc(Cl)c1OC(C)C	inactive: 2%
CS(=O)(=O)c1ccc(Cl)c(NC(=O)COC(=O)C(O)(c2ccccc2)c2ccccc2)c1	inactive: 1%
CCCOP(=S)(Nc1nc(N)cc(=O)[nH]1)OCCC	inactive: 4%
Cc1ccc(NCCc2c([N+](=O)[O-])cc([N+](=O)[O-])cc2[N+](=O)[O-])cc1	inactive: 7%
Nc1cccc2c([As](=O)(O)O)cccc12	active: 48%
Nc1ccccc1[As](=O)(O)c1ccccc1	inactive: 3%
O=C(O)COc1ccc([As](=O)(O)O)cc1[N+](=O)[O-]	inactive: 6%
O=P(Nc1nccs1)(c1ccccc1)c1nc2ccccc2s1 (stereo not drawn)	inactive: 1%
O=[N+]([O-])c1ccc2c(c1)nnn2O	inactive: 1%
CN(C)C(=O)c1cc([N+](=O)[O-])cc2c1-c1c(cc([N+](=O)[O-])cc1[N+](=O)[O-])C2=O	inactive: 1%
CCNC(=S)/N=C(\N)N[N+](=O)[O-]	inactive: 5%
c1ccc(-c2nn[nH]n2)c(-c2nn[nH]n2)c1	inactive: 7%
Cc1ccc(NP(=O)(Oc2cccc(C)c2)Oc2cccc(C)c2)nc1	inactive: 1%
CCOC(=O)NC(Sc1ccccc1)C(Cl)(Cl)Cl (stereo not drawn)	inactive: 1%
Cc1ccccc1OP(=O)(Nc1ccccn1)Oc1ccccc1C	inactive: 2%
CN(C)C(=O)Oc1noc2ccccc12	inactive: 1%
Cc1ccc(OP(=O)(Nc2ccccn2)Oc2ccc(C)cc2)cc1	inactive: 2%
O=C(OC1CN2CCC1CC2)c1ccccc1 (stereo not drawn)	inactive: 1%
O=P1(Nc2nc3ccc(Cl)cc3s2)COc2ccccc2O1 (stereo not drawn)	inactive: 2%
CC(=O)Nc1ccc([As](=O)(O)O)c(O)c1	inactive: 3%
CC(=O)Nc1ccc(Oc2c([N+](=O)[O-])cc([N+](=O)[O-])cc2[N+](=O)[O-])cc1	inactive: 3%
CC(=O)c1ccc(N2CC2c2ccncc2)cc1 (stereo not drawn)	inactive: 6%
C[C@@H]1C=CCP(=O)(Oc2ccccc2)O1 (stereo partly drawn)	inactive: 5%
c1nnnn1CCn1cnnn1	inactive: 1%
O=P(Nc1nccs1)(c1ccccc1)c1ccccc1	inactive: 1%

SMILES	inhibition of aptamer binding
O=P(Nc1ccccn1)(c1ccc(Br)cc1)c1ccc(Br)cc1	inactive: 2%
CN(C)C1(CNC(=O)c2ccc(Cl)c(S(N)(=O)=O)c2)CCCCC1	inactive: 1%
C(Cc1nn[nH]n1)Cc1nn[nH]n1	inactive: 4%
O=[N+]([O-])c1ccc(O)c(/C=N/Nc2ccc([N+](=O)[O-])cc2[N+](=O)[O-])c1	inactive: 4%
O=[N+]([O-])c1ncn(CCn2cnc([N+](=O)[O-])n2)n1	inactive: 1%
O=[As](O)(c1ccccc1)c1ccc(O)cc1	inactive: 3%
O=[N+]([O-])c1cccc(NC2=NCC(CBr)S2)c1 (stereo not drawn)	inactive: 1%
O=C(O)CNc1ccc([As](=O)(O)O)cc1	inactive: 1%
O=[N+]([O-])c1ncn(CCn2ncnc2[N+](=O)[O-])n1	inactive: 2%
O=[N+]([O-])c1cccc2n[nH]nc12	inactive: 1%
Cc1ccc(NP(=O)(Oc2ccccc2)Oc2ccccc2)nc1	inactive: 4%
O=[N+]([O-])c1cc([N+](=O)[O-])c(CCNc2ccccc2)c([N+](=O)[O-])c1	inactive: 7%
COc1ccc(C2=NCC(CBr)S2)cc1 (stereo not drawn)	inactive: 1%
CC(C)=N/N=C(\N)N[N+](=O)[O-]	inactive: 1%
Nc1ccc([As](=O)(O)c2ccc(N)cc2)cc1	inactive: 2%
C[N+]1=C2C=CC=CC=C2SC12C([N+](=O)[O-])=CC([N+](=O)[O-])=C[C-]2[N+](=O)[O-] (stereo not drawn)	inactive: 1%
COc1ccccc1OP(=O)(Nc1ccc(C)cn1)Oc1ccccc1OC	inactive: 2%
Cc1ccc(OP(=O)(Nc2nccs2)Oc2ccc(C)cc2)cc1	inactive: 3%
NC(=O)c1cc([N+](=O)[O-])cc([N+](=O)[O-])c1N	inactive: 3%
Oc1ccccc1CNc1ccccn1	inactive: 5%
Cc1cc(SC(NC(=O)c2ccc(F)cc2)C(Cl)(Cl)Cl)ncn1 (stereo not drawn)	inactive: 1%
Cc1ccc(NP(=O)(Oc2ccccc2F)Oc2ccccc2F)nc1	inactive: 3%
CC(=O)Nc1ccc([As](=O)(O)O)cc1	inactive: 2%
O=C(O)c1ccccc1[As](=O)(O)O	inactive: 1%
Nc1cccc2ccc([As](=O)(O)O)cc12	inactive: 3%
O=[N+]([O-])c1cc([N+](=O)[O-])c(CCN2CCOCC2)c([N+](=O)[O-])c1	inactive: 13%
